scFv variants of Ab-14 (heavy chain) against a SARS-CoV-2 spike peptide

From the AlphaSeq antibody data of Engelhart et al. 2022 (doi:10.1038/s41597-022-01779-4), copy in the FLAb collection.

The target is the same throughout: PDVDLGDISGINAS, from the HR2 region of SARS-CoV-2 spike.

Ab-14 is the parent antibody, in scFv form: VH, then a 15-residue (Gly4Ser)3 linker, then VL. The light chain is unchanged in all variants.
VH: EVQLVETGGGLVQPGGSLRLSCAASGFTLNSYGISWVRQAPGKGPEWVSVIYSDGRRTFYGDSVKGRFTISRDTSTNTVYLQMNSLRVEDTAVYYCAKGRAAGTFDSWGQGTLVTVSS
VL: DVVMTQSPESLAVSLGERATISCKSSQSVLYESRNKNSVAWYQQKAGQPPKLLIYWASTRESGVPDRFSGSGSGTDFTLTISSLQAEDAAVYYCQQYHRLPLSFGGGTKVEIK

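Phage display of a naive human antibody library on the peptide gave the parent. AAYL49 was designed without a model: most single CDR substitutions and a random sample of double and triple ones. AlphaSeq pools MATa yeast showing the antibodies with MATalpha yeast showing the peptide. The frequency of each diploid, read from paired DNA barcodes, reflects how well the two displayed proteins bind. Scores were corrected for input abundance and mapped to Kd with protein pairs of known affinity run in the same pool. The assay was run in three technical replicates.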

Substitutions are numbered in sequence along the VH above, starting at 1 (not Kabat). Values are apparent Kd, the geometric mean of the replicates that gave a signal; lower means stronger binding. "not detected" means that the variant was in the library but no mating with the target was seen in any replicate; the authors take this as a sign of poor binding, and no number exists. Background: pairings of library AAYL49 with three empty control strains gave a value in 15% of cases (median 11 µM, 5th percentile 680 nM). Values in that range, when seen in few replicates, are hard to tell from nonspecific mating.

| changes | Kd | detected |
|---|---|---|
| I34L S35C A102D | 7.3 µM | 2/3 |
| F27Y Y52E R100I | 55 µM | 1/3 |
| L29K S31V I34T | 6.2 µM | 2/3 |
| Y52H F59R G99I | not detected | 0/3 |
| L29H Y32Q A102Q | not detected | 0/3 |
| G26M F59P R100E | not detected | 0/3 |
| Y32C A102M S107W | 56 µM | 1/3 |
| R56E Y60M G99A | 810 µM | 1/3 |
| R56D A102C F105Y | not detected | 0/3 |
| G26R F59N A102I | 18 µM | 3/3 |
| Y52V F59A | 190 µM | 1/3 |
| N30H V50N S63V | 2.1 µM | 1/3 |
| I34V S53C S63N | not detected | 0/3 |
| N30F F59T D106I | 140 µM | 1/3 |
| N30C Y52V Y60K | not detected | 0/3 |
| N30P G33Y A101M | 420 µM | 1/3 |
| S53K G99V A101S | not detected | 0/3 |
| G33Y I34E I51G | not detected | 0/3 |
| I34P I51K G55I | 580 µM | 1/3 |
| N30R F105Y S107Y | 85 µM | 3/3 |
| Y32F A101S S107N | 54 nM | 3/3 |
| Y60G R100L D106M | not detected | 0/3 |
| G33P D54K Y60D | not detected | 0/3 |
| L29S R56N S107Q | 660 µM | 1/3 |
| F27R A101S | 170 nM | 3/3 |
| N30H A101L | 7.1 nM | 3/3 |

Further variants, results first:

| Kd | detected | changes |
|---|---|---|
| 5.8 µM | 1/3 | S35R G103W D106V |
| 30 µM | 1/3 | I34S S63M S107D |
| not detected | 0/3 | S35E Y60C S107N |
| not detected | 0/3 | R56Q R57W Y60D |
| not detected | 0/3 | S35L R56E |
| 7.0 µM | 2/3 | G61F V64A K65G |
| 19 nM | 3/3 | N30A S53A D106C |
| 610 nM | 3/3 | S31I S63G |
| 1.2 µM | 1/3 | G26E I34Y R100W |
| not detected | 0/3 | S35I S53G D54G |
| not detected | 0/3 | S35T G55T A102K |
| not detected | 0/3 | N30K I51L D54W |
| not detected | 0/3 | G26E N30R D106P |
| not detected | 0/3 | G55P T58I G61W |
| 54 nM | 3/3 | S31R A102T S107K |
| 4.5 µM | 1/3 | Y52P D54R F59I |
| 130 µM | 2/3 | V50G G61N A102H |
| 980 nM | 1/3 | S35D D54Y S63L |
| not detected | 0/3 | D54G A101I T104W |
| 17 µM | 1/3 | R57N K65C A101I |
| 58 µM | 3/3 | I51D G103Q F105V |
| 74 µM | 2/3 | D62N S63C G99C |
| not detected | 0/3 | G33R G61E S107G |
| 70 µM | 1/3 | I51Y A101N F105D |
| 91 µM | 1/3 | G33C Y60R A102D |
| not detected | 0/3 | L29H T58H V64N |

The first 4 variants above that were never detected:

{"changes": "Y52H F59R G99I", "Kd": "not detected", "detected": "0/3"}
{"changes": "L29H Y32Q A102Q", "Kd": "not detected", "detected": "0/3"}
{"changes": "G26M F59P R100E", "Kd": "not detected", "detected": "0/3"}
{"changes": "R56D A102C F105Y", "Kd": "not detected", "detected": "0/3"}